From patent EP4847505A1, “4-METHYLSULFONYL-SUBSTITUTED PIPERIDINE UREA COMPOUNDS” (dated 2026)

The chains behind the UniProt entries cited, without tags or fusion partners.
UniProt Q9BE39, whole entry: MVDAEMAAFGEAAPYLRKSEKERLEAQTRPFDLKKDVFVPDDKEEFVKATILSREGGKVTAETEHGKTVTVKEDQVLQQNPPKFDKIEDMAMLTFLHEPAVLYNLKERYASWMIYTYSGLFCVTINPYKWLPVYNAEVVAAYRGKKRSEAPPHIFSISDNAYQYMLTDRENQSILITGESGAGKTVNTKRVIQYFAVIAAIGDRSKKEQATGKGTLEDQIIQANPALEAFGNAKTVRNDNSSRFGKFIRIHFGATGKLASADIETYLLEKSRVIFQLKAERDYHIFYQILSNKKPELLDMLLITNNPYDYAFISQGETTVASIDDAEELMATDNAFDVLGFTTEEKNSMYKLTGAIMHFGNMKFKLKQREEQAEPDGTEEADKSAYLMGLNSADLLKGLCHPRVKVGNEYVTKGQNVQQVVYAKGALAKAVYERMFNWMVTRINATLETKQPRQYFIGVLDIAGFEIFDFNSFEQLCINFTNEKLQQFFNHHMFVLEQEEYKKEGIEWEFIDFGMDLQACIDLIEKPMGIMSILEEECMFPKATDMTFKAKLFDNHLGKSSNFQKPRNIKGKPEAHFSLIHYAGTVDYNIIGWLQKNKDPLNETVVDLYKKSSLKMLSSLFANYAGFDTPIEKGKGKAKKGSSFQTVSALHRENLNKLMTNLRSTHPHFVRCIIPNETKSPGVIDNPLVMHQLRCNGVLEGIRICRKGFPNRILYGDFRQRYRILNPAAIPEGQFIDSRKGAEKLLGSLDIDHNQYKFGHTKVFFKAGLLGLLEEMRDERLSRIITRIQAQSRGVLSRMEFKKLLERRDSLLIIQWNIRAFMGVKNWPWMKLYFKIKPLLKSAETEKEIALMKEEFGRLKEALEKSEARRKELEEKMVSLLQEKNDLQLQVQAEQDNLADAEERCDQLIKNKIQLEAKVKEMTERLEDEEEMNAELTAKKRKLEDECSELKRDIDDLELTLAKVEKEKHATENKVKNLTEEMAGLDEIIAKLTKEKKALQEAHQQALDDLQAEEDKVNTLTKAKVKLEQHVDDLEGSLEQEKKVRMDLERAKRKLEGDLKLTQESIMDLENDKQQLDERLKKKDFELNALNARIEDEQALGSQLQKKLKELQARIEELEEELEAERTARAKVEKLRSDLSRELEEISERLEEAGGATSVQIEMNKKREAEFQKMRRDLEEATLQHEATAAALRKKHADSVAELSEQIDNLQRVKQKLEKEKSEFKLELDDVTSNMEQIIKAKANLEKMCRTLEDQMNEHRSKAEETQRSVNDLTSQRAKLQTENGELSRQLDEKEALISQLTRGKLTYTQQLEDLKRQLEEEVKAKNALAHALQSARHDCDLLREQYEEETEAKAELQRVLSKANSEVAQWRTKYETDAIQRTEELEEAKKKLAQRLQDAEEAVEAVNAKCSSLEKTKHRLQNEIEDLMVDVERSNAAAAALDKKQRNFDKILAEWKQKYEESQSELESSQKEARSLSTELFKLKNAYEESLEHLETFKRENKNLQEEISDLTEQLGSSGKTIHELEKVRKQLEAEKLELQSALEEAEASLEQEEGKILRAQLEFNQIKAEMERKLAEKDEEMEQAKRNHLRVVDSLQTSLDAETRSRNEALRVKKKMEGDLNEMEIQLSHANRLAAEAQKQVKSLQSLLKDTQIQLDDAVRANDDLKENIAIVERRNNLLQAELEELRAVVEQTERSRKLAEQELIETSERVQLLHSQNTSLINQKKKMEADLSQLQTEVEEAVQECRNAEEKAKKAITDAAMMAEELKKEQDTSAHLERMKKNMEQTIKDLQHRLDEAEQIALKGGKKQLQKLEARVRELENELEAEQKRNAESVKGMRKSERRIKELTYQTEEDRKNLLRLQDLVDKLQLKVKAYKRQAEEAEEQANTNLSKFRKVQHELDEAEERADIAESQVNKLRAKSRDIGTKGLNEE
UniProt Q3SZE5, whole entry partner: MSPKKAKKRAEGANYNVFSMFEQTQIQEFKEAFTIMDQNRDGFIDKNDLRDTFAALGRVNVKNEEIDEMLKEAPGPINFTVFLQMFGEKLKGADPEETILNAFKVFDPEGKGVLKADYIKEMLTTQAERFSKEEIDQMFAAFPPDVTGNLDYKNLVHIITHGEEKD
UniProt P85100, whole entry partner: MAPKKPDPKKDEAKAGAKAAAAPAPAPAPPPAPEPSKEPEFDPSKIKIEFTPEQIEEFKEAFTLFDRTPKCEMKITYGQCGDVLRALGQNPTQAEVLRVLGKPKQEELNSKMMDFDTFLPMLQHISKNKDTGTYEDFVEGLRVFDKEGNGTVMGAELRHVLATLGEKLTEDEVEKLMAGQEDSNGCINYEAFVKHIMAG

Target: bovine cardiac myosin (Bos taurus, UniProt Q9BE39)
Assay: Myosin activation assay (PK/LDH-coupled ATPase, bovine cardiac myofibrils)
Settings: concentration at which the total response is increased by twenty percent
Experimental: Small molecule agents were assessed for their ability to activate the enzymatic activity of bovine cardiac myosin using a biochemical assay that couples the release of ADP (adenosine diphosphate) from cardiac myosin to an enzymatic coupling system consisting of pyruvate kinase and lactate dehydrogenase (PK/LDH) and monitoring the absorbance decrease of NADH (at 340 nm) as a function of time. PK converts ADP to ATP (adenosine triphosphate) by converting PEP (phosphoenolpyruvate) to pyruvate. Pyruvate is then converted to lactate by LDH by converting NADH (nicotinamide adenine dinucleotide) to NAD (oxidized nicotinamide adenine dinucleotide). The source of cardiac myosin was from bovine heart in the form of skinned myofibrils. Prior to testing small molecule agents, the bovine myofibrils were assessed for their calcium responsiveness and the calcium concentration that achieves either a 50% (pCa50 or pCa = ~ 6) or < 5% (pCa = 10) activation of the myofibril system was chosen as the final condition for assessing the activation activity of the small molecule agents. All enzymatic activity was measured in a buffered solution containing 12 mM PIPES (piperazine-N,N'-bis(2-ethanesulfonic acid), 2 mM magnesium chloride at pH 6.8 (PM12 buffer). Final assay conditions were 1 mg/mL of bovine cardiac myofibrils, 0.4 mM PK/LDH, 50 uM ATP, 0.1 mg/mL BSA (bovine serum albumin), 10 ppm antifoam, 2 mM BME, 0.5 mM NADH, 1.5 mM PEP at the desired free calcium concentration required to achieve either 50% or < 5% activation of the myofibrils.
A dilution series of compound was created in DMSO such that the final desired concentration of compound would be achieved in a volume of 100 µL with a fixed DMSO concentration of 3.3% (v/v). Typically a 1 µL of the dilution series was added to a 384 well plate to achieve a 10 point dose response. Following the addition of 14 µL of a solution containing bovine cardiac myofibrils, PK/LDH and a solution of calcium (that achieved the desired activation), the enzymatic reaction was started with the addition of 15 µL of a solution containing ATP, PEP and NADH. The reaction progress was followed in a PerkinElmer Envision plate reader at ambient temperature using clear bottom plates. The plate reader was configured to read absorbance at 340 nm in kinetics mode for 15 minutes. Data were recorded as the slope of the absorbance response to time. The slopes of the absorbance response as a function of time were normalized to slopes on the plate containing DMSO. This normalized rate was then plotted as a function of small molecule concentration and the data was fitted to a four-parameter fit using EXCEL XLfit. The concentration at which the total response is increased by twenty or fifty percent is reported as AC20 or AC50. […] Table 2. Myosin Activation of Selected Compoundsa

Row | Compound | Myosin Activation (AC20)
1 | CC(C)(C1CCN(C(=O)Nc2ccncc2F)CC1)S(=O)(=O)c1cccc(F)c1 | + (+ represents myosin activation value AC20 > 5 µM)
2 | C[C@](F)(C1CCN(C(=O)Nc2cnc3c(c2)CNC3=O)CC1)S(=O)(=O)c1cccc(F)c1 | ++ (++ represents myosin activation value AC20 from 2 µM - 5 µM)
3 | Cn1cc(S(=O)(=O)[C@@](C)(F)C2CCN(C(=O)Nc3cn[nH]c3)CC2)c(C(F)F)n1 | ++ (++ represents myosin activation value AC20 from 2 µM - 5 µM)
4 | COc1cccc(S(=O)(=O)C(F)(F)C2CCN(C(=O)Nc3ccnnc3)CC2)c1Cl | ++ (++ represents myosin activation value AC20 from 2 µM - 5 µM)
5 | CC(C)(C1CCN(C(=O)Nc2cnoc2)CC1)S(=O)(=O)c1cccc(F)c1 | +++ (+++ represents myosin activation value AC20 < 2 µM)
6 | CC(F)(C1CCN(C(=O)Nc2cnoc2)CC1)S(=O)(=O)c1cccc(F)c1 (stereo not drawn) | +++ (+++ represents myosin activation value AC20 < 2 µM)
7 | Cn1nc(C(F)(F)F)cc1S(=O)(=O)C(C)(F)C1CCN(C(=O)Nc2ccnc(F)c2)CC1 (stereo not drawn) | ++ (++ represents myosin activation value AC20 from 2 µM - 5 µM)
8 | CC(C)(C1CCN(C(=O)Nc2ccnnc2)CC1)S(=O)(=O)c1ccc(C(F)(F)F)cc1 | ++ (++ represents myosin activation value AC20 from 2 µM - 5 µM)
9 | Cn1nccc1S(=O)(=O)C(C)(C)C1CCN(C(=O)Nc2cnns2)CC1 | +++ (+++ represents myosin activation value AC20 < 2 µM)
10 | CCC(F)(C1CCN(C(=O)Nc2ccnnc2)CC1)S(=O)(=O)c1cccc(F)c1 (stereo not drawn) | ++ (++ represents myosin activation value AC20 from 2 µM - 5 µM)
11 | Cc1cc(S(=O)(=O)C(C)(C)C2CCN(C(=O)Nc3ccnnc3)CC2)n(C)n1 | +++ (+++ represents myosin activation value AC20 < 2 µM)
12 | CCn1nccc1S(=O)(=O)C(C)(C)C1CCN(C(=O)Nc2ccnnc2)CC1 | + (+ represents myosin activation value AC20 > 5 µM)
13 | Cn1nccc1S(=O)(=O)C(C)(F)C1CCN(C(=O)Nc2ccnnc2)CC1 (stereo not drawn) | ++ (++ represents myosin activation value AC20 from 2 µM - 5 µM)
14 | Cn1nccc1S(=O)(=O)C(C)(C)C1CCN(C(=O)Nc2ccon2)CC1 | ++ (++ represents myosin activation value AC20 from 2 µM - 5 µM)
15 | COc1ncccc1S(=O)(=O)C(C)(F)C1CCN(C(=O)Nc2ccnnc2)CC1 (stereo not drawn) | ++ (++ represents myosin activation value AC20 from 2 µM - 5 µM)
16 | Cc1ccc(F)cc1S(=O)(=O)C(F)(F)C1CCN(C(=O)Nc2ccnnc2)CC1 | ++ (++ represents myosin activation value AC20 from 2 µM - 5 µM)
17 | O=C(Nc1ccns1)N1CCC(C2(S(=O)(=O)c3ccc(OC(F)(F)F)cc3)CC2)CC1 | +++ (+++ represents myosin activation value AC20 < 2 µM)
18 | Cn1nc(C(F)F)cc1S(=O)(=O)C(C)(F)C1CCN(C(=O)Nc2ccnc(F)c2)CC1 (stereo not drawn) | ++ (++ represents myosin activation value AC20 from 2 µM - 5 µM)
19 | Cn1cc(S(=O)(=O)C(C)(C)C2CCN(C(=O)Nc3cnoc3)CC2)c(C(F)F)n1 | +++ (+++ represents myosin activation value AC20 < 2 µM)
20 | COc1ccc(S(=O)(=O)[C@@](C)(F)C2CCN(C(=O)Nc3ccon3)CC2)cn1 | ++ (++ represents myosin activation value AC20 from 2 µM - 5 µM)
21 | C[C@H](O)c1cc(NC(=O)N2CCC(C(F)(F)S(=O)(=O)c3cn(C)nc3C(F)F)CC2)ccn1 | + (+ represents myosin activation value AC20 > 5 µM)
22 | [2H]C([2H])([2H])n1cc(S(=O)(=O)[C@@](F)(C2CCN(C(=O)Nc3ccon3)CC2)C([2H])([2H])[2H])c(C(F)F)n1 | +++ (+++ represents myosin activation value AC20 < 2 µM)
23 | CN(C)c1ncccc1S(=O)(=O)C(F)(F)C1CCN(C(=O)Nc2ccnnc2)CC1 | + (+ represents myosin activation value AC20 > 5 µM)

Row | Compound | Myosin Activation (AC20)
24 | Cn1cncc1S(=O)(=O)C(C)(C)C1CCN(C(=O)Nc2ccnnc2)CC1 | + (+ represents myosin activation value AC20 > 5 µM)
25 | Cc1ccc(NC(=O)N2CCC(C(C)(C)S(=O)(=O)c3cc(C(F)F)nn3C)CC2)cn1 | ++ (++ represents myosin activation value AC20 from 2 µM - 5 µM)
26 | C[C@](F)(C1CCN(C(=O)Nc2ccon2)CC1)S(=O)(=O)c1ccc(C(F)(F)F)nc1 | ++ (++ represents myosin activation value AC20 from 2 µM - 5 µM)
27 | N#Cc1ccc(S(=O)(=O)C(F)(F)C2CCN(C(=O)Nc3ccnnc3)CC2)cc1 | ++ (++ represents myosin activation value AC20 from 2 µM - 5 µM)
28 | CC(F)(C1CCN(C(=O)Nc2ccc(F)nc2)CC1)S(=O)(=O)c1cccc(F)c1 (stereo not drawn) | ++ (++ represents myosin activation value AC20 from 2 µM - 5 µM)
29 | CC(C)n1cc(S(=O)(=O)CC2CCN(C(=O)Nc3ccncc3)CC2)cn1 | + (+ represents myosin activation value AC20 > 5 µM)
30 | O=C(Nc1ccnnc1)N1CCC(C2(S(=O)(=O)c3ccc(OC(F)(F)F)cc3)CC2)CC1 | +++ (+++ represents myosin activation value AC20 < 2 µM)
31 | COc1ccc(F)cc1S(=O)(=O)C(F)(F)C1CCN(C(=O)Nc2ccnnc2)CC1 | + (+ represents myosin activation value AC20 > 5 µM)
32 | Cc1cc(OC(F)(F)F)ccc1S(=O)(=O)C(F)(F)C1CCN(C(=O)Nc2ccnnc2)CC1 | ++ (++ represents myosin activation value AC20 from 2 µM - 5 µM)
33 | Cn1cc(S(=O)(=O)C(C)(F)C2CCN(C(=O)Nc3ccnnc3)CC2)c(C(F)(F)F)n1 (stereo not drawn) | ++ (++ represents myosin activation value AC20 from 2 µM - 5 µM)
34 | Cn1cc(S(=O)(=O)[C@@](C)(F)C2CCN(C(=O)Nc3cccnc3)CC2)c(C(F)F)n1 | ++ (++ represents myosin activation value AC20 from 2 µM - 5 µM)
35 | COc1ccc(S(=O)(=O)C(C)(F)C2CCN(C(=O)Nc3ccon3)CC2)cn1 (stereo not drawn) | ++ (++ represents myosin activation value AC20 from 2 µM - 5 µM)
36 | CC(C)(C1CCN(C(=O)Nc2ccc(F)nc2)CC1)S(=O)(=O)c1cccc(F)c1 | ++ (++ represents myosin activation value AC20 from 2 µM - 5 µM)
37 | O=C(Nc1ccncc1)N1CCC(CS(=O)(=O)c2cccc(F)c2)CC1 | + (+ represents myosin activation value AC20 > 5 µM)
38 | Cn1cc(S(=O)(=O)C(C)(C)C2CCN(C(=O)Nc3ccon3)CC2)c(Cl)n1 | + (+ represents myosin activation value AC20 > 5 µM)
39 | CC(F)(C1CCN(C(=O)Nc2ccnnc2)CC1)S(=O)(=O)c1ccc(C#N)cc1 (stereo not drawn) | +++ (+++ represents myosin activation value AC20 < 2 µM)
40 | CC(F)(C1CCN(C(=O)Nc2cnns2)CC1)S(=O)(=O)c1ccc(C(F)(F)F)cc1 (stereo not drawn) | +++ (+++ represents myosin activation value AC20 < 2 µM)
41 | Cc1ccccc1S(=O)(=O)C(C)(C)C1CCN(C(=O)Nc2ccncc2)CC1 | +++ (+++ represents myosin activation value AC20 < 2 µM)
42 | Cc1ccc(S(=O)(=O)CC2CCN(C(=O)Nc3ccncc3)CC2)cc1 | + (+ represents myosin activation value AC20 > 5 µM)
43 | Cn1cnc(S(=O)(=O)C(F)(F)C2CCN(C(=O)Nc3ccnnc3)CC2)c1 | + (+ represents myosin activation value AC20 > 5 µM)
44 | N#Cc1ccc(S(=O)(=O)C(F)(F)C2CCN(C(=O)Nc3ccnnc3)CC2)c(Cl)c1 | ++ (++ represents myosin activation value AC20 from 2 µM - 5 µM)
45 | Cn1nc(C(F)F)cc1S(=O)(=O)C(C)(C)C1CCN(C(=O)Nc2ccnc(F)c2)CC1 | +++ (+++ represents myosin activation value AC20 < 2 µM)
